Data taken from ChEMBL document CHEMBL3272245, “Potent reversible anticholinesterase agents. Bis- and mono-N-substituted benzoquinolinium halides” (J Med Chem, 1977).

Chains of the proteins cited; added tags and fusions are not shown. Lines headed by an entry give the natural chain unless they say otherwise; changes in a name come on top.
UniProt O42275: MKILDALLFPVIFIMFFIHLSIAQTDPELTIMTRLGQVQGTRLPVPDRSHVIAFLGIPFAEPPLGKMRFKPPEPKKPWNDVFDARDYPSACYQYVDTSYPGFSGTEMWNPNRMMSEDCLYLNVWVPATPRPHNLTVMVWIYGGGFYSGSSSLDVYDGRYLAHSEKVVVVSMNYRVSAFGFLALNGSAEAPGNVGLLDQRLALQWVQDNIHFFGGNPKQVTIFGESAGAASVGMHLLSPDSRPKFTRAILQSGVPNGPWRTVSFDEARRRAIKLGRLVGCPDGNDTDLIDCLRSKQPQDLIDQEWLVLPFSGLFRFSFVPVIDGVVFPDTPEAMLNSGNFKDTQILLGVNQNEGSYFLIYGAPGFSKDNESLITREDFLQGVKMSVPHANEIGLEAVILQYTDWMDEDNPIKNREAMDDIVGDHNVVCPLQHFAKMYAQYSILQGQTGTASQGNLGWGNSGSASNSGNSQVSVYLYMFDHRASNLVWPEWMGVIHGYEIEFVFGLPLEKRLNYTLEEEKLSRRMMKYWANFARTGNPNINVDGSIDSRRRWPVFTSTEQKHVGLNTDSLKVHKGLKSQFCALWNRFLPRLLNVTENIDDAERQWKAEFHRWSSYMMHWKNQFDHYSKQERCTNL

Target: Acetylcholinesterase (Electrophorus electricus, UniProt O42275)
Assay: Reversible mixed-type inhibition of electric eel acetylcholinesterase using acetylcholine bromide as substrate assessed as free enzyme-inhibitor complex by Lineweaver-Burk plot analysis

SMILES: CNC(=O)Oc1ccc2c(c1)[C@]1(C)CCN(C)[C@@H]1N2C [PHYSOSTIGMINE SALICYLATE]
- Ki: 210 nM
